Binding of CDR-mutated scFvs to a peptide of the spike HR2 region

All variants were tested on one target, the spike HR2 peptide PDVDLGDISGINAS (SARS-CoV-2).

Parent: Ab-14, a human scFv built as VH, a (GGGGS)3 linker, VL. Only the CDRs of the light chain vary.
VH: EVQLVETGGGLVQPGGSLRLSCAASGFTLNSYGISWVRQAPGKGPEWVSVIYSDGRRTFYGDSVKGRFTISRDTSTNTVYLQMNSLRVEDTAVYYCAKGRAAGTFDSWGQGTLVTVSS
VL: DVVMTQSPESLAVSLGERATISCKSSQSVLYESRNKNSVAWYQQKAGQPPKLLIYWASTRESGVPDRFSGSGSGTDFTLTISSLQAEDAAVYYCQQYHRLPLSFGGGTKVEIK

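The library (AAYL50) carries one to three amino acid substitutions per variant, with no insertions or deletions. The assay is AlphaSeq: two haploid yeast populations carry antibody and antigen on their surface. After mating in shaken culture at 30 °C for 16 h, diploids were selected and their barcode pairs sequenced. The ratio of observed to expected reads was calibrated, replicate by replicate, on BCL2-family standards whose Kd was known from biolayer interferometry. Mating was done three times.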

Each variant is given by its three light chain CDRs, as the data file delimits them; those of the parent are KSSQSVLYESRNKNSVA, WASTRES, QQYHRLPLS. Values are log10 of the apparent Kd in nM; lower means stronger binding. Averages over replicates are reported, and they cover detected replicates only. "nd" means that the variant was in the library but no mating with the target was seen in that replicate; the authors take this as a sign of poor binding, and no number exists. Background: pairings of library AAYL50 with three empty control strains gave a value in 18% of cases (median 4.19, 5th percentile 2.99). Values in that range, when seen in few replicates, are hard to tell from nonspecific mating. The control count says in how many pairings with the empty strains this scFv gave a signal, with their mean in brackets.

{"CDR-L1": "KSSLSVLYESLNKNSVA", "CDR-L2": "WASTRES", "CDR-L3": "QQYHRLPLS", "log10 Kd, replicates": "0.30 0.30 0.36", "mean, log10 nM": "0.32", "control signals": "2 of 9 (3.77)"}
{"CDR-L1": "KSSQSVLYESRNKNSVV", "CDR-L2": "WASFRES", "CDR-L3": "QQYHRLPLS", "log10 Kd, replicates": "nd nd nd", "mean, log10 nM": "nd", "control signals": "0 of 9"}
{"CDR-L1": "KSSQSVLYESRNKNSVA", "CDR-L2": "WASTRTS", "CDR-L3": "QQYPRLHLS", "log10 Kd, replicates": "2.05 2.41 1.95", "mean, log10 nM": "2.14", "control signals": "0 of 9"}
{"CDR-L1": "LSGQSVLYESRNANSVA", "CDR-L2": "WASTRES", "CDR-L3": "QQYHRLPLS", "log10 Kd, replicates": "0.66 0.69 0.78", "mean, log10 nM": "0.71", "control signals": "0 of 9"}
{"CDR-L1": "KSSQSVLYESRNKNSTA", "CDR-L2": "WAGTAES", "CDR-L3": "QQYHRLPLS", "log10 Kd, replicates": "nd nd nd", "mean, log10 nM": "nd", "control signals": "0 of 9"}
{"CDR-L1": "KSSQLVLYESRNKNSVA", "CDR-L2": "WASTRIS", "CDR-L3": "QQYHRLPNS", "log10 Kd, replicates": "3.77 nd 3.69", "mean, log10 nM": "3.73", "control signals": "1 of 9 (3.35)"}
{"CDR-L1": "KSAQSVLYESRNKNDVA", "CDR-L2": "WASTRES", "CDR-L3": "LQYHRLPLS", "log10 Kd, replicates": "2.58 3.31 2.07", "mean, log10 nM": "2.65", "control signals": "0 of 9"}
{"CDR-L1": "KSSQEVLYESRNKNSVA", "CDR-L2": "WASTRPS", "CDR-L3": "QQYHRLPMS", "log10 Kd, replicates": "nd 2.98 2.56", "mean, log10 nM": "2.77", "control signals": "1 of 9 (4.80)"}
{"CDR-L1": "KGSQSMLMESRNKNSVA", "CDR-L2": "WASTRES", "CDR-L3": "QQYHRLPLS", "log10 Kd, replicates": "0.48 0.73 0.56", "mean, log10 nM": "0.59", "control signals": "5 of 9 (4.38)"}
{"CDR-L1": "KSFQSVLYESRNKNSVA", "CDR-L2": "WASTRES", "CDR-L3": "QQDHRLPWS", "log10 Kd, replicates": "4.64 4.91 nd", "mean, log10 nM": "4.77", "control signals": "0 of 9"}
{"CDR-L1": "KSSQSVLYESRNKNSVA", "CDR-L2": "WASTRES", "CDR-L3": "QQFGRLPNS", "log10 Kd, replicates": "nd 4.12 6.40", "mean, log10 nM": "5.26", "control signals": "6 of 9 (4.78)"}
{"CDR-L1": "KSSQSVSYESRNKNSVA", "CDR-L2": "WASTMES", "CDR-L3": "QQYHRLPLN", "log10 Kd, replicates": "3.28 nd 3.22", "mean, log10 nM": "3.25", "control signals": "0 of 9"}
{"CDR-L1": "KSSQSVLYESRNKNSVA", "CDR-L2": "WASTRER", "CDR-L3": "QGTHRLPLS", "log10 Kd, replicates": "nd nd 4.74", "mean, log10 nM": "4.74", "control signals": "1 of 9 (4.23)"}
{"CDR-L1": "KSSQSVLYESRNKKSVA", "CDR-L2": "WASTTES", "CDR-L3": "QQYHRIPLS", "log10 Kd, replicates": "nd nd nd", "mean, log10 nM": "nd", "control signals": "0 of 9"}
{"CDR-L1": "KSSQSVLYESRNKNSVA", "CDR-L2": "WASPRES", "CDR-L3": "QQYHRLPIT", "log10 Kd, replicates": "nd nd nd", "mean, log10 nM": "nd", "control signals": "0 of 9"}
{"CDR-L1": "KSSQSVLYESRNKNSVL", "CDR-L2": "WACKRES", "CDR-L3": "QQYHRLPLS", "log10 Kd, replicates": "nd nd nd", "mean, log10 nM": "nd", "control signals": "0 of 9"}
{"CDR-L1": "KYSQSVLYNSRNCNSVA", "CDR-L2": "WASTRES", "CDR-L3": "QQYHRLPLS", "log10 Kd, replicates": "3.36 2.20 nd", "mean, log10 nM": "2.78", "control signals": "0 of 9"}
{"CDR-L1": "KSSQSVLYESRNKNKVA", "CDR-L2": "WWSTRES", "CDR-L3": "QQYHRLRLS", "log10 Kd, replicates": "5.26 nd nd", "mean, log10 nM": "5.26", "control signals": "5 of 9 (4.95)"}
{"CDR-L1": "KSSQSVLYRSRNKSSTA", "CDR-L2": "WASTRES", "CDR-L3": "QQYHRLPLS", "log10 Kd, replicates": "nd nd nd", "mean, log10 nM": "nd", "control signals": "0 of 9"}
{"CDR-L1": "KSSNSVLYESRNKNFVA", "CDR-L2": "WASTRES", "CDR-L3": "QQYHRLPLL", "log10 Kd, replicates": "nd 3.95 4.71", "mean, log10 nM": "4.33", "control signals": "1 of 9 (4.13)"}
{"CDR-L1": "KSSQSVLYESRNKNVVA", "CDR-L2": "WASTMES", "CDR-L3": "QQYHLLPLS", "log10 Kd, replicates": "3.87 3.08 nd", "mean, log10 nM": "3.47", "control signals": "0 of 9"}
{"CDR-L1": "KSSQSVLSESRNKNSVA", "CDR-L2": "WASTRES", "CDR-L3": "QFYHRCPLS", "log10 Kd, replicates": "2.33 1.76 1.76", "mean, log10 nM": "1.95", "control signals": "1 of 9 (3.88)"}
{"CDR-L1": "ASSQSVLSESRNKNSVA", "CDR-L2": "WASTRES", "CDR-L3": "QQYHRLTLS", "log10 Kd, replicates": "2.76 1.97 3.66", "mean, log10 nM": "2.79", "control signals": "2 of 9 (3.14)"}
{"CDR-L1": "KSSQRVLLESRNKNSVL", "CDR-L2": "WASTRES", "CDR-L3": "QQYHRLPLS", "log10 Kd, replicates": "6.33 4.63 nd", "mean, log10 nM": "5.48", "control signals": "6 of 9 (4.36)"}
{"CDR-L1": "KSSQEVLYESRNVNSMA", "CDR-L2": "WASTRES", "CDR-L3": "QQYHRLPLS", "log10 Kd, replicates": "2.47 2.15 3.14", "mean, log10 nM": "2.59", "control signals": "0 of 9"}

Top 4 of the variants detected in all replicates, tightest first:

{"CDR-L1": "KSSLSVLYESLNKNSVA", "CDR-L2": "WASTRES", "CDR-L3": "QQYHRLPLS", "log10 Kd, replicates": "0.30 0.30 0.36", "mean, log10 nM": "0.32", "control signals": "2 of 9 (3.77)"}
{"CDR-L1": "KGSQSMLMESRNKNSVA", "CDR-L2": "WASTRES", "CDR-L3": "QQYHRLPLS", "log10 Kd, replicates": "0.48 0.73 0.56", "mean, log10 nM": "0.59", "control signals": "5 of 9 (4.38)"}
{"CDR-L1": "LSGQSVLYESRNANSVA", "CDR-L2": "WASTRES", "CDR-L3": "QQYHRLPLS", "log10 Kd, replicates": "0.66 0.69 0.78", "mean, log10 nM": "0.71", "control signals": "0 of 9"}
{"CDR-L1": "KSSQSVLSESRNKNSVA", "CDR-L2": "WASTRES", "CDR-L3": "QFYHRCPLS", "log10 Kd, replicates": "2.33 1.76 1.76", "mean, log10 nM": "1.95", "control signals": "1 of 9 (3.88)"}

Reference: Engelhart et al. 2022, doi:10.1038/s41597-022-01779-4. File: FLAb, binding data.